Molecular target: human NK2 receptor (Homo sapiens, UniProt P21452)
Test: Equilibrium-competition binding of 3H-NKA to MELM (membranes of MEL cells expressing human NK2 receptor)

Protein sequences, listed by entry. Tags and fused reporters are not part of them.
UniProt P21452, whole entry: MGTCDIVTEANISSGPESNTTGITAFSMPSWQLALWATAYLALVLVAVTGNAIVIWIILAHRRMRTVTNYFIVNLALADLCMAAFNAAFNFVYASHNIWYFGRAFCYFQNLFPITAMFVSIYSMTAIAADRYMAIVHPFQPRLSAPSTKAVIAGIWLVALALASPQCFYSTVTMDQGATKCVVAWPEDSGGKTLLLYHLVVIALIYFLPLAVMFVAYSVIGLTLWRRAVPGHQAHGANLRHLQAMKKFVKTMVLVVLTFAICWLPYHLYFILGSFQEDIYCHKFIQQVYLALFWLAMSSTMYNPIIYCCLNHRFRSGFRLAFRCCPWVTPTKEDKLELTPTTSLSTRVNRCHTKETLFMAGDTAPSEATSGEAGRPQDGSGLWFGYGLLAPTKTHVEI

In the case of [4,5-^3 H-Leu^9 ]-NKA [^3 H-NKA], the “specific binding to MELM” value (3H-NKA 2.5 nM) was 88±4% and the Bmax (equilibrium-competition experiments, MELM) was 2229 fmol/mg protein.

— US5521199A, “Piperidinyl compounds as neurokinin receptor antagonists” (Zeneca Limited, priority 1993, dated 1996)
